Assay results from patent US20110142757A1, “NOVEL COMPOUNDS AND THEIR USES IN DIAGNOSIS” (the University of Sydney, priority 2008, published 2011).

The chains behind the UniProt entries cited, without tags or fusion partners.
UniProt P30536, whole entry: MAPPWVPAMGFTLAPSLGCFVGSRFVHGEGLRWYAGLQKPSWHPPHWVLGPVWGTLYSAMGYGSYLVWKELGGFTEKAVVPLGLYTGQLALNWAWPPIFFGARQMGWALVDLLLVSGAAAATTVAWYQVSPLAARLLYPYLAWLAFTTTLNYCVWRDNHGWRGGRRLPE

Biological target: T1, human TSPO (Homo sapiens, UniProt P30536)
T1 construct: expressed in transfected cells; host or cells: HEK293, mitochondrial fraction
Test: [3H]PK11195 competition binding assay, mitochondrial membranes of HEK293 cells transfected with human TSPO
Settings: competition with 6 nM [3H]PK11195, one-site or two-site competition fit, read-out: Binding Affinity (Ki) ± Standard Error, Site 1
Description: Radioligand Binding Experiments Using [^3H]PK11195
Cell Culture and Membrane Preparation
Human embryonic kidney cells (HEK293) were transfected with human TSPO as described previously (Riond, J., Mattei, M. G., Kaghad, M., Dumont, X., Guillemot, J. C., Le Fur, G., Caput, D., Ferrara, P. (1991) Molecular cloning and chromosomal localization of a human peripheral-type benzodiazepine receptor. Eur. J. Biochem. 195, 305-311; Vin, V., Leducq, N., Bono, F., Herbert, J. M. (2003) Binding characteristics of SSR180575, a potent and selective peripheral benzodiazepine receptor ligand. Biochem. Biophys. Res. Comm. 310, 785-790). […]
The mitochondrial fraction of the cells was obtained by homogenising the cell pellet in three volumes of 50 mM Tris-HCl (pH 7.5), containing 0.33 M sucrose, 1 mM MgCl2, and 25 mM KCl (Solution, 1). […] The resultant pellet was, then resuspended in an appropriate amount of reaction buffer (50 mM Tris-HCl, pH 7.5), and protein concentration determined using a Bio-Rad Lowry Protein Assay Kit. […]
After incubation, assays were terminated by rapid filtration through a 96-well filter plate in ice-cold incubation buffer (50 mM Tris-HCl, pH 7.5), and washed 10 times with 200 μl of ice-cold incubation buffer, using a Brandel 96-sample vacuum harvester. […] Data was analysed and fit to a curve using GraphPad Prism 5.0.

`CCC(C)N(C)C(=O)c1cc2ccccc2c(-c2ccccc2Cl)n1` (stereo not shown) [PK11195] gave a Ki of 6.08 ± 0.33 nM.
